The target in assay [1] is T1, Group II metabotropic glutamate receptor (mGlu2/mGlu3) (Rattus norvegicus, UniProt P31421+P31422). As to the kind of experiment: Agonist activity at mGlu2/3 receptor in Sprague-Dawley rat forebrain assessed as inhibition of spontaneous Ca2+ oscillations in cortical neurons after 300 secs by FLIPR assay. Format: functional.
For assay [2], the target named is T1, Group II metabotropic glutamate receptor (mGlu2/mGlu3). As to the kind of experiment: Displacement of [3H]-LY459477 from mGlu2/3 receptor in Sprague-Dawley rat forebrain primary cortical membranes after 90 mins by liquid scintillation counting.

The chains behind the UniProt entries cited, without tags or fusion partners. Where a name states a change or a piece, a line headed by the entry shows the natural chain unless it says otherwise.
UniProt P31421: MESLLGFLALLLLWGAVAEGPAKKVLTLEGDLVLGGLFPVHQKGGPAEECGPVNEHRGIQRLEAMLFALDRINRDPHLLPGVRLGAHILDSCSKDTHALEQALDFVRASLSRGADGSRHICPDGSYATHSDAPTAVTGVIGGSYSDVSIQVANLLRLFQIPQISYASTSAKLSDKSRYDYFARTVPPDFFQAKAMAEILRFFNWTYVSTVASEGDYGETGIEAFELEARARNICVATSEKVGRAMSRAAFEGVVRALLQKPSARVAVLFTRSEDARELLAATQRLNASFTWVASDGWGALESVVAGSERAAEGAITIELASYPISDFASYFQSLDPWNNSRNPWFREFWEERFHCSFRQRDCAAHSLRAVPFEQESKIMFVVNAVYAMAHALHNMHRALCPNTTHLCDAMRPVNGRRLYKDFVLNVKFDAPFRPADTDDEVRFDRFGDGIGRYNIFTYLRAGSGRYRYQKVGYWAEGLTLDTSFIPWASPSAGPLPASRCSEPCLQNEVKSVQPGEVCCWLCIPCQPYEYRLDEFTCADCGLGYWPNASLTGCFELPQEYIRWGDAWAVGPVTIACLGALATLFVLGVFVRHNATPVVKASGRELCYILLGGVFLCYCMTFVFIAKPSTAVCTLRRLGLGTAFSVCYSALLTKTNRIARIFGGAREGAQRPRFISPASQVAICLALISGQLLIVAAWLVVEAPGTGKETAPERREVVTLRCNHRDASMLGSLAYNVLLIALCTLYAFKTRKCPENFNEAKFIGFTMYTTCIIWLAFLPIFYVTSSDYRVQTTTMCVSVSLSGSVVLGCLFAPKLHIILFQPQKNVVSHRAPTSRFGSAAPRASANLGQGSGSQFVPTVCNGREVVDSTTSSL
UniProt P31422: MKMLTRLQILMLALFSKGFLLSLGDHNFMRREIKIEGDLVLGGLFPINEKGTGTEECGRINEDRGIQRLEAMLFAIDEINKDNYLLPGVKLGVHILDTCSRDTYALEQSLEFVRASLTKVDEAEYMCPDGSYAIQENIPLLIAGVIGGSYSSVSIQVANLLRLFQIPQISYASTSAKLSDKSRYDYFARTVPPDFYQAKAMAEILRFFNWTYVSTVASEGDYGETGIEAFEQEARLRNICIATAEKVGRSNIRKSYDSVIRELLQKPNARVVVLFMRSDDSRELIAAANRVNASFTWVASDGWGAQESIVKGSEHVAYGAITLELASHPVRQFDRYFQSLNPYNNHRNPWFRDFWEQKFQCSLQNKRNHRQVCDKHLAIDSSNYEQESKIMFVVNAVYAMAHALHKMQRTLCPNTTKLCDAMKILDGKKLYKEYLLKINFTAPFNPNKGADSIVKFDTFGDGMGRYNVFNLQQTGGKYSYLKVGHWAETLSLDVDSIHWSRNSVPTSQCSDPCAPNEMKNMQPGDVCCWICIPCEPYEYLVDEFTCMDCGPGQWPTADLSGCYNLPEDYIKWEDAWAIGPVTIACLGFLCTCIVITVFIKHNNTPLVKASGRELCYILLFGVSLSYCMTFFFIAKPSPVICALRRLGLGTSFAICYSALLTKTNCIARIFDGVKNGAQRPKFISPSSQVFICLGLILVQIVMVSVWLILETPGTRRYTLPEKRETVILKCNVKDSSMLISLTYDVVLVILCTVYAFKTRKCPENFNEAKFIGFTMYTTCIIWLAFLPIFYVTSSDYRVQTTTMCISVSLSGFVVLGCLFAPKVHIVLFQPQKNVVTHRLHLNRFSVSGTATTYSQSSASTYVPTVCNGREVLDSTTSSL

In general, EC50 refers to the concentration at which the effect is half-maximal. By Ki is commonly meant the equilibrium dissociation constant of an inhibitor or competing ligand from its target. Read a low Ki as a stronger hold on the target.

Consider `N[C@@]1(C(=O)O)CC[C@H]2[C@H](C(=O)O)[C@H]21` [EGLUMETAD], for which the EC50 in assay [1] was determined as 9.8 nM. In assay [2], this compound had a Ki of 476 nM.

(Values after ChEMBL document CHEMBL4020826, “Synthesis and Pharmacological Characterization of C4β-Amide-Substituted 2-Aminobicyclo[3.1.0]hexane-2,6-dicarboxylates. Identification of (1 S,2 S,4 S,5 R,6 S)-2-Amino-4-[(3-methoxybenzoyl)amino]bicyclo[3.1.0]hexane-2,6-dicarboxylic Acid (LY2794193), a Highly Potent and Selective mGlu3 Receptor …” (J Med Chem, 2018).)
